Measured values published in ChEMBL document CHEMBL5154675, “Design, Synthesis, and Biological Evaluation of 1-(Indolizin-3-yl)ethan-1-ones as CBP Bromodomain Inhibitors for the Treatment of Prostate Cancer” (J Med Chem, 2022).

Chains of the proteins cited; added tags and fusions are not shown.
UniProt Q92793, whole entry: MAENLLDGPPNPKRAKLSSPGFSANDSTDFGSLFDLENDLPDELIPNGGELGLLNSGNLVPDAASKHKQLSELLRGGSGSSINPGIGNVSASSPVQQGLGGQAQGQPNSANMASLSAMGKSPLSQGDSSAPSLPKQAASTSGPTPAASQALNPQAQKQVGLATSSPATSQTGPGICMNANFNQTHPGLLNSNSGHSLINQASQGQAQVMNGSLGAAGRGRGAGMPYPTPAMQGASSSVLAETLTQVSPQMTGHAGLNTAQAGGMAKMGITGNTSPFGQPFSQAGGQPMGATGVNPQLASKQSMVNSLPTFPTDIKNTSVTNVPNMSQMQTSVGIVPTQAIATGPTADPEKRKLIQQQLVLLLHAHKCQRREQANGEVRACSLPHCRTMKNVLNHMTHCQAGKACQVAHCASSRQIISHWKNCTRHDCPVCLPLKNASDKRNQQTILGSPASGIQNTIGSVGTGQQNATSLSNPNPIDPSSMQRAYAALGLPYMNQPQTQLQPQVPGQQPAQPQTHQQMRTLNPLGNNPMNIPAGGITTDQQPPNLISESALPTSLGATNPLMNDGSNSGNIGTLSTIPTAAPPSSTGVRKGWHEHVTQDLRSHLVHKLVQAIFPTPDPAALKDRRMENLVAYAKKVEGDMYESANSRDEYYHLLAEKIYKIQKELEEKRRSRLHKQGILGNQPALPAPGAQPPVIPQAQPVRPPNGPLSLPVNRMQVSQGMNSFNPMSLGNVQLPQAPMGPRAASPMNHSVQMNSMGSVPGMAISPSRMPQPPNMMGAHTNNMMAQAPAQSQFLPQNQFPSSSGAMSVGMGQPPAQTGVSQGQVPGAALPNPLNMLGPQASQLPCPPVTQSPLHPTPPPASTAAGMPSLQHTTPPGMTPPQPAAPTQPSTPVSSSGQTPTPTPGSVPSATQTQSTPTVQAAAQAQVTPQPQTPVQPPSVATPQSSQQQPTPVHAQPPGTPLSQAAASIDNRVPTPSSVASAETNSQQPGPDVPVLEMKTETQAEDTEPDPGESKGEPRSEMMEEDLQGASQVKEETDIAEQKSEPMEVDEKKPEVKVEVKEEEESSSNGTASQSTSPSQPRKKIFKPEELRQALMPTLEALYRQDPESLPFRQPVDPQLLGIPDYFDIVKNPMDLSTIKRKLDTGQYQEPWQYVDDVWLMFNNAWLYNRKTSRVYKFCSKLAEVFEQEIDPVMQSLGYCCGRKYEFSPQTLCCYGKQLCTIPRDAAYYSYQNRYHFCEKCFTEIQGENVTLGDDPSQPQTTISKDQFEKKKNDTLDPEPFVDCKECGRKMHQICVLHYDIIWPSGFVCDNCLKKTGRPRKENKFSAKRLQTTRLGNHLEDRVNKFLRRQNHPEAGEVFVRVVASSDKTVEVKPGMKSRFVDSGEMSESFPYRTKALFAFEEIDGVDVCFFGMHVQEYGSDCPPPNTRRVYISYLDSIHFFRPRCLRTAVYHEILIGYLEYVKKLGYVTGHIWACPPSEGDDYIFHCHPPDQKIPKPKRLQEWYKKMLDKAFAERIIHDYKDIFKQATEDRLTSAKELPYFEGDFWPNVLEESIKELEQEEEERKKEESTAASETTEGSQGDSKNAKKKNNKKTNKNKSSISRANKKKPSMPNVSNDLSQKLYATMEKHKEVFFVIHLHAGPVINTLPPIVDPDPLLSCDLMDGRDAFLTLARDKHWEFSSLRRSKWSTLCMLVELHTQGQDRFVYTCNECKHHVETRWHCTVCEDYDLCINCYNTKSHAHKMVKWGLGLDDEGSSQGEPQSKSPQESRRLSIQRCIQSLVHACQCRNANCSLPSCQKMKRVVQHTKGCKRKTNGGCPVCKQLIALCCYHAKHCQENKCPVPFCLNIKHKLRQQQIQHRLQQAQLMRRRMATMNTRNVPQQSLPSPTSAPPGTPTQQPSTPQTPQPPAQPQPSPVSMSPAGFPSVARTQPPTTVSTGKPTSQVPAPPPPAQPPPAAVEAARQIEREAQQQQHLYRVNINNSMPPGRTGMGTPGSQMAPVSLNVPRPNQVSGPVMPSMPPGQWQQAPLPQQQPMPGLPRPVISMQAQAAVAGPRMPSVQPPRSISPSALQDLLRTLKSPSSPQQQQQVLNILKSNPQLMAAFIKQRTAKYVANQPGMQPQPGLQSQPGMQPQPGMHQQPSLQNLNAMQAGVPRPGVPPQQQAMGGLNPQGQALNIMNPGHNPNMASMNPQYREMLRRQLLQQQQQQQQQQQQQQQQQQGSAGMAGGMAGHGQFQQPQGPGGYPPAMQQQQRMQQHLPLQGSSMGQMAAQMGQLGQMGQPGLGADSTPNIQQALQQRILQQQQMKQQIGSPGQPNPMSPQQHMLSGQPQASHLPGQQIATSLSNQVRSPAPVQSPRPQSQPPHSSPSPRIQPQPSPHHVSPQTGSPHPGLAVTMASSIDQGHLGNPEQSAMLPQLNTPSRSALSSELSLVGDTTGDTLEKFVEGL

Assays:
[1] = molecular target: T1, CREB-binding protein (Homo sapiens, UniProt Q92793); experiment: Inhibition of His6-tagged human CBP bromodomain (1081 to 1197 residues) expressed in Escherichia coli BL21 (DE3) incubated for 30 mins by HTRF assay
[2] = molecular target: T1, CREB-binding protein; experiment: Binding affinity to His6-tagged human CBP bromodomain (1081 to 1197 residues) expressed in Escherichia coli BL21 (DE3) assessed as dissociation constant by ITC analysis

## CO[C@H]1CC[C@H](n2c([C@@H]3CCCC(=O)N3c3ccc(F)c(F)c3)nc3cc(-c4c(C)noc4C)ccc32)CC1 [INOBRODIB]
[1]
  IC50: 2.05 nM
[2]
  Kd: 14 nM
